{"sequences": {"note": "Sequences of proteins named here, by UniProt entry; tags and fusion partners are left off. A change or cut given only in a name is not applied to a line headed by its entry.", "UniProt P41146": "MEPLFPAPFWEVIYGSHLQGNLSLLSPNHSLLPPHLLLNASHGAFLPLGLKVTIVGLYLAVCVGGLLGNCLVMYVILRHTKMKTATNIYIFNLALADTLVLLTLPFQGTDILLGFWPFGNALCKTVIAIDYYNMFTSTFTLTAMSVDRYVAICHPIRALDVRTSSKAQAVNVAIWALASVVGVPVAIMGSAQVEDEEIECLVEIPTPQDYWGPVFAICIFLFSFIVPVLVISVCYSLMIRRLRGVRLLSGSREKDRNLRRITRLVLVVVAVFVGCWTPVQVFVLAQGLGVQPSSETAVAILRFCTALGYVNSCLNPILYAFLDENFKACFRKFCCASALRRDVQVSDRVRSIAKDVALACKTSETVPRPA"}, "source": "paper PMC4527783", "about": "(PLoS ONE, 2015)", "key": {"[1]": {"biological_target": "human NOP-RLuc/Gβ1-RGFP (Homo sapiens, UniProt P41146)", "assay": "BRET NOP/G-protein interaction, agonist concentration-response, cell membranes"}, "[2]": {"biological_target": "T1, human NOP-RLuc/β-arrestin 2-RGFP (Homo sapiens, UniProt P41146)", "assay": "BRET NOP/β-arrestin 2 interaction, agonist concentration-response, whole cells"}, "[3]": {"biological_target": "T1, human NOP-RLuc/β-arrestin 2-RGFP", "assay": "BRET NOP/β-arrestin 2 interaction, antagonist potency vs N/OFQ, whole cells"}}}
{"smiles": "CCn1c(=O)n([C@@H]2CCN(CC3CCCCCCC3)C[C@H]2CO)c2ccccc21", "values": [{"measurement": "pEC50 (CL95%), G protein", "setting": "[1]; HEK293 membranes (3 μg protein), DPBS, 5 μM coelenterazine, 5 min incubation, room temperature, at least 5 experiments in duplicate, inactive = no BRET stimulation up to 10 μM", "value": "inactive"}, {"measurement": "effect on basal BRET ratio, G protein", "setting": "[1]; membranes", "value": "did not modify the basal BRET ratio"}, {"measurement": "pEC50, G protein (Table 3)", "setting": "[1]; membranes, 5 min, summary Table 3, inactive up to 1 μM", "value": "inactive"}, {"measurement": "pEC50 (CL95%), β-arrestin 2", "setting": "[2]; whole HEK293 cells (100,000/well), DPBS with 0.5 mM MgCl2, 0.9 mM CaCl2, 5 μM coelenterazine, 5 min incubation, room temperature, at least 5 experiments in duplicate, inactive up to 10 μM", "value": "inactive"}, {"measurement": "effect on basal BRET ratio / receptor/arrestin stimulation", "setting": "[2]; whole cells", "value": "did not modify the basal BRET ratio"}, {"measurement": "antagonism of N/OFQ, β-arrestin 2 (in words)", "setting": "[3]", "value": "expected competitive inhibition"}]}
